From patent publication US11833120B2, “Binding protein drug conjugates comprising anthracycline derivatives” (priority 2014, dated 2023)

How the values were obtained:
[1] = test system: L428, a Hodgkin's lymphoma cell line expressing low to moderate levels of CD30; assay: In vitro cytotoxicity assay (CellTiter-Glo) on L428; format: cell-based, human; details: CD30 LO L428 cells, 4 days, up to 20 μg/ml
Description: Cytotoxicity of Brentuximab-PNU-EDA-Gly5 was investigated using Karpas-299, a non-Hodgkin's lymphoma cell line expressing high levels of CD30, and L428, a Hodgkin's lymphoma cell line expressing low to moderate levels of CD30 (FIGS. 4A and 4B). […] For this, cells were plated on 96-well plates in 100 μl RPMI/10% FCS at a density of 10^4 cells per well and grown at 37° C. in a humidified incubator at 5% CO2 atmosphere. After one day incubation, 25 μl medium was carefully removed from each well and replaced by 25 μl of 3.5-fold serial dilutions of each ADC in growth medium, resulting in final ADC concentrations ranging from 20 μg/ml to 0.25 ng/ml. Each dilution was done in duplicate. After 4 additional days, plates were removed from the incubator and equilibrated to room temperature. After approximately 30 minutes, 100 μl CellTiter-Glo® Luminescent Solution (Promega, Cat. No G7570) was added to each well and, after shaking the plates at 450 rpm for 5 min followed by a 10 min incubation without shaking, luminescence was measured on a Tecan Infinity F200 with an integration time of 1 second per well. […]

[2] = test system: Karpas-299, a non-Hodgkin's lymphoma cell line expressing high levels of CD30; assay: In vitro cytotoxicity assay (CellTiter-Glo) on Karpas-299; format: cell-based, human; details: Karpas-299 cells, HER-2 negative, up to 20 μg/ml
[3] = test system: SKBR3 cells, a human breast cancer cell line overexpressing HER-2; assay: In vitro cytotoxicity assay (CellTiter-Glo) on SKBR3; format: cell-based; details: HER-2-overexpressing SKBR3 cells, 4 days with ADC
Description: Cytotoxicity of Brentuximab-PNU-EDA-Gly5 was investigated using Karpas-299, a non-Hodgkin's lymphoma cell line expressing high levels of CD30, and L428, a Hodgkin's lymphoma cell line expressing low to moderate levels of CD30 (FIGS. 4A and 4B). […] For this, cells were plated on 96-well plates in 100 μl RPMI/10% FCS at a density of 10^4 cells per well and grown at 37° C. in a humidified incubator at 5% CO2 atmosphere. After one day incubation, 25 μl medium was carefully removed from each well and replaced by 25 μl of 3.5-fold serial dilutions of each ADC in growth medium, resulting in final ADC concentrations ranging from 20 μg/ml to 0.25 ng/ml. Each dilution was done in duplicate. After 4 additional days, plates were removed from the incubator and equilibrated to room temperature. After approximately 30 minutes, 100 μl CellTiter-Glo® Luminescent Solution (Promega, Cat. No G7570) was added to each well and, after shaking the plates at 450 rpm for 5 min followed by a 10 min incubation without shaking, luminescence was measured on a Tecan Infinity F200 with an integration time of 1 second per well.
For this, cells were plated on 96 well plates in 100 μl DMEM/10% FCS at a density of 10^4 cells per well and assays were performed exactly as described above. […]

[4] = test system: HER-2-negative EMT6 cells; assay: In vivo efficacy control, orthotopic HER-2-negative EMT6 tumors; design: species or system Balb/c mice; details: 1 mg/kg i.v. on days 13 and 20, mice bearing HER-2-negative tumors
Description: For this, 10^6 EMT6 mouse breast cancer cells expressing human HER-2 (Example 6), previously determined to be suitable for in vivo growth, were implanted into the right mammary fat pads of female Balb/c mice. In addition, control animals were implanted with HER-2-negative EMT6 cells. In the following, primary tumor volumes were measured by calipering. After 13 days, when a mean tumor volume of 100-150 mm^3 was reached, tumor-bearing animals were randomized into groups of 6 animals each according to tumor sizes. […] Tumor sizes were monitored by calipering and animals whose tumor volume reached 1000-1500 mm^3 were terminated (FIGS. 10A-10D).
FIGS. 10A-D: In vivo evaluation of HER-2-specific ADCs in an immunocompetent orthotopic mouse model of HER2-positive breast cancer. EMT6 mouse breast cancer cells expressing human HER-2 (FIGS. 10A, 10C, 10D) or irrelevant antigen ROR-1 were grown in the mammary fat pads of Balb/c mice. […] Tumor growth was monitored until animals had to be sacrificed due to ethical reasons.

Substance | cell killing (in words) [1] | specific cell killing (in words) [2] | EC50 of cell killing [3] [ng/mL] | effect on tumor growth (in words) [4]
Kadcyla: commercially available HER-2-specific Trastuzumab-DM1 conjugate, maleimide linker containing | no specific cell killing and was ineffective on either cell line | no specific cell killing and was ineffective on either cell line | 23.7 | –
Trastuzumab-PNU-EDA-Gly5 | – | – | 4.8 | did not lead to tumor regression
